System: cyanobacteria (Synechococcus elongatus PCC7942)
Experiment: NTG chemical mutagenesis, fatality rate of the strain

With `CN(N=O)C(=N)N[N+](=O)[O-]` the “fatality rate of the strain” value (50 μg/ml to 100 μg/ml of the NTG, 0.5 minutes to 1.5 minutes) was “approximately 50%” and the fatality rate (secondary NTG mutagenesis, 100 μg/ml of the NTG for 1 minute) was “approximately 50%”.

Source: patent US20250188443A1, “METHOD FOR CULTIVATING CYANOBACTERIA” (published 2025)
